Reference: BindingDB's records for patent US9951014 (Northwestern University, 2018)

Amino acid sequences for entries named in this document (tags omitted).
UniProt P29475, whole entry: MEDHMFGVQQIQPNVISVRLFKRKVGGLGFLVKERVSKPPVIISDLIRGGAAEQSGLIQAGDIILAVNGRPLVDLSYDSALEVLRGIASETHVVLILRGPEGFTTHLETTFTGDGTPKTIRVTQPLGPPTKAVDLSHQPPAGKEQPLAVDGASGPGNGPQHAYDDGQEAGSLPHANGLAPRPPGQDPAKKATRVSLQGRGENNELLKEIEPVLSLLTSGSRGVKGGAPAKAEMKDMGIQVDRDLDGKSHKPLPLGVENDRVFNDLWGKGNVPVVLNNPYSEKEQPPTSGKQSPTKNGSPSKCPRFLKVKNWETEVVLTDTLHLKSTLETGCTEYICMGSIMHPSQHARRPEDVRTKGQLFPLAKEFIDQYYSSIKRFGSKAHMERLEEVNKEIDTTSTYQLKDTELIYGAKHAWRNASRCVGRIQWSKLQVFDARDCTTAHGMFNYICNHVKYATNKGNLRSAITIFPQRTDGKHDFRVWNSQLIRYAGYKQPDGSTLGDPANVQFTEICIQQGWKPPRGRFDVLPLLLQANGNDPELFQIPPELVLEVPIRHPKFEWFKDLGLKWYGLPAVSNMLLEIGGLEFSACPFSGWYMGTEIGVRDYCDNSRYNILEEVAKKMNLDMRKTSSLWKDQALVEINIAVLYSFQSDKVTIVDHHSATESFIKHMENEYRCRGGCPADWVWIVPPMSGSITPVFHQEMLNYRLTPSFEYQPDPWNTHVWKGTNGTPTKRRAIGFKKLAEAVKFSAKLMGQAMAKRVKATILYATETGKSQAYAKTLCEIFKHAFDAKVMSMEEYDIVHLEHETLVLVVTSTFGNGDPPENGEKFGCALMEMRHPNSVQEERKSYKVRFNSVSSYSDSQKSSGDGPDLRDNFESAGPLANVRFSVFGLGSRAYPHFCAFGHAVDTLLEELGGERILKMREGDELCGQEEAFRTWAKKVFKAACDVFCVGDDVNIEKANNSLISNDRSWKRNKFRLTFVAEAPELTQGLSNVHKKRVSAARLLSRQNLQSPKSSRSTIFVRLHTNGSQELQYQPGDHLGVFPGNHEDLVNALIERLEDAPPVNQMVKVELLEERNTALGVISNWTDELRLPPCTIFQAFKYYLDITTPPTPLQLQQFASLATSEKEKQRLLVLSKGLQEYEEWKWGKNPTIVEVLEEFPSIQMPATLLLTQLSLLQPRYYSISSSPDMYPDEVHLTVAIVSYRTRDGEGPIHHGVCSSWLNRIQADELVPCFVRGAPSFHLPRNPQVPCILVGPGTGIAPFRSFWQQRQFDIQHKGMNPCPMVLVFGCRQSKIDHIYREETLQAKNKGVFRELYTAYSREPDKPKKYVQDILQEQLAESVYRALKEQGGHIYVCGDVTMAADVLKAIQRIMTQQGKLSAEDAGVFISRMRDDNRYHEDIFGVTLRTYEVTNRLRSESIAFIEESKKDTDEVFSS

Molecular target: Nitric oxide synthase, brain (Homo sapiens, UniProt P29475)
Experiment: Inhibition Assay

- Ki: 0.049 µM
Structure (SMILES): Cc1cc(N)nc(CCc2cccc(CCc3cc(C)cc(N)n3)c2)c1 [US9951014, Name 31a]
